Values of other authors as cited in publication PMC10266261, “A High-Throughput Approach to Identify Specific Neurotoxicants / Developmental Toxicants in Human Neuronal Cell Function Assays” (ALTEX, 2018).

Test system: cardiomyocytes
Conditions: specific = cardio-physiologic parameters affected after 30 min at three-fold lower concentration than viability and no effect on viability after 24 h; ref Sirenko et al., 2017; cited from earlier work

## CC/C(=C(/CC)c1ccc(O)cc1)c1ccc(O)cc1 [Diethylstilbestrol]
  classification in the cardiotoxicity test method: generally cytotoxic
